Conditions: rat, in vivo

CC1=CCC23OC2(C)CCC2C(CN(C)C)C(=O)OC2C13.Cl (stereo not shown) [Dimethylaminoarglabin hydrochloride]
biological half-life: about 46.8 hours
